A short description of the assay: NCI Yeast Anticancer Drug Screen. Data for the mgt1 strain (AID 153). To be noted: S. cerevisiae mgt1 mutant growth inhibition, stronger effect = higher value. As to the method: Growth inhibition of yeast strains with defined genetic alterations is measured as a screen for potential anti-cancer activity. Selected strains with alterations in DNA damage repair or cell cycle control were exposed to compounds and growth inhibition was measured relative to vehicle treated controls. The strain used in this assay is mgt1

Each structure is given as a SMILES string. The list shows a part of the results, in another mix than the full data. More than one record can exist for a structure, and the calls need not agree. The source made the active and inactive calls. Cut-off read from the data, not from the text of the source: active = growth inhibition above about 70%; inactive = the rest.

In the case of `COc1ccc(C[N+](C)(CCCl)CCCl)c([N+](=O)[O-])c1`, the growth inhibition by setting is: (at 1.2 µM) inactive: -6%; (at 3.7 µM) inactive: -3%; (at 11.0 µM) inactive: 14%; (at 33.0 µM) inactive: 0%; (at 100.0 µM) inactive: 4%.

On to `ClCCN1CCCCC1CCl` (stereo not given), for which the growth inhibition was inactive: -2% (at 1.2 µM); inactive: 0% (at 3.7 µM); inactive: -1% (at 11.0 µM); inactive: 4% (at 33.0 µM); inactive: 30% (at 100.0 µM).

Regarding `Cc1ccc([N+](=O)[O-])c(C[N+](C)(CCCl)CCCl)c1`, the growth inhibition runs as follows: (at 1.2 µM) inactive: -21%; (at 3.7 µM) inactive: -23%; (at 11.0 µM) inactive: -26%; (at 33.0 µM) inactive: 11%; (at 100.0 µM) active: 84%.

For the compound `Cc1cccc(C[N+](C)(CCCl)CCCl)c1[N+](=O)[O-]`, the growth inhibition by setting is: (at 1.2 µM) inactive: -4%; (at 3.7 µM) inactive: -2%; (at 11.0 µM) inactive: -16%; (at 33.0 µM) inactive: 25%; (at 100.0 µM) active: 77%.

On to `COc1ccc([N+](=O)[O-])c(C[N+](C)(CCCl)CCCl)c1`, for which the growth inhibition reads like this: (at 1.2 µM) inactive: -53%; (at 3.7 µM) inactive: -25%; (at 11.0 µM) inactive: -14%; (at 33.0 µM) inactive: -41%; (at 100.0 µM) inactive: 3%.

The record behind these values is PubChem BioAssay (NCI).
